pKi: −log10 of the molar value.
What was measured:
[1] = target: Human recombinant adenosine A1 receptors (Homo sapiens, UniProt P30542); experiment: Human adenosine A1 receptor binding assay ([3H]DPCPX); conditions: read-out: hAl Ki; membranes of CHO-K1 cells, 1 nM [3H]DPCPX, 90 minutes at 25° C.
Method: 2.1 Human Adenosine A1 Receptor Binding Assay
Test compound is weighed, dissolved in DMSO to make a stock solution of 10 mM, diluted with DMSO to prepare working solutions, then 100-fold diluted to the indicated concentrations. Human recombinant adenosine A1 receptors expressed in CHO-K1 cells were used to prepare membranes in incubation buffer (20 mM HEPES (4-(2-hydroxyethyl)-1-piperazineethanesulfonic acid) pH 7.4, 10 mM MgCl2, 100 mM NaCl). Test compound or vehicle (2.2 μL) was added in 200 μL of membranes and incubated with 20 μL of 1 nM [^3H] DPCPX (8-cyclopentyl-1,3-dipropylxanthine) for 90 minutes at 25° C. Non-specific binding was estimated in the presence of 100 μM R(−)-PIA ((R)—N-(1-methyl-2-phenylethyl)adenosine). The incubation was stopped by vacuum filtration onto 0.3% PEI (polyethylenimine) presoaked GF/B filters using a harvester followed by four washes with ice-cold 50 mM Tris-HCl, pH 7.4, and the radioactivity on GF/B filtermats counted in a scintillation counter (PerkinElmer Topcount™) to determine [^3H] DPCPX specifically bound. Final concentration of vehicle DMSO is 1%.
Data is fitted using the non-linear curve fitting routines in Meth-IQ software (ID Business Solutions Ltd., UK). IC50 is converted to Ki by Cheng-Prusoff equation: Ki=IC50/(1+[L]/KD) where [L] is concentration of radiolabeled ligand used in the assay.

The chains behind the UniProt entries cited, without tags or fusion partners.
UniProt P30542, whole entry: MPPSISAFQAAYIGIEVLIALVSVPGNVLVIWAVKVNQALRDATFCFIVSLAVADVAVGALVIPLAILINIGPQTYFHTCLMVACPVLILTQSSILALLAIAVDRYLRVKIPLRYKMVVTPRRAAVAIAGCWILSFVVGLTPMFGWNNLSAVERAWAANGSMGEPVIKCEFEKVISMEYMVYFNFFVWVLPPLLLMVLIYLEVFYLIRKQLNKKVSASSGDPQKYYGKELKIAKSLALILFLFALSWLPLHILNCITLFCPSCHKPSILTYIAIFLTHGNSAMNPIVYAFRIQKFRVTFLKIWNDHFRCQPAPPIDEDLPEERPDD

[2] = target: Human recombinant adenosine A2A receptors (Homo sapiens, UniProt P29274); experiment: Human adenosine A2A receptor binding assay ([3H]CGS-21680)

- pKi [1]: > 7.00
- pKi ([2]; read-out: hA2A Ki, membranes of HEK-293 cells, 50 nM [3H]CGS-21680, 90 minutes at 25° C.): > 7.70
- activity as dual antagonists of both A2A and A1 receptors ([2]; summary in words of the A2A and A1 binding results of Table 2): potent activity as dual antagonists
Compound: N#Cc1cccc(-c2nc(N)nc3c2cnn3Cc2c(F)cc(N)cc2F)c1F

— patent US11806350B2, “Prevention and/or treatment of CNS disorders” (ILDONG PHARMACEUTICAL CO., LTD., priority 2020, dated 2023)
